# Test results reported in ChEMBL document CHEMBL3421623 (J Med Chem, 2015).
# Sequences of proteins named here, by UniProt entry; tags and fusion partners are left off. A change or cut given only in a name is not applied to a line headed by its entry.
# UniProt P05177, whole entry: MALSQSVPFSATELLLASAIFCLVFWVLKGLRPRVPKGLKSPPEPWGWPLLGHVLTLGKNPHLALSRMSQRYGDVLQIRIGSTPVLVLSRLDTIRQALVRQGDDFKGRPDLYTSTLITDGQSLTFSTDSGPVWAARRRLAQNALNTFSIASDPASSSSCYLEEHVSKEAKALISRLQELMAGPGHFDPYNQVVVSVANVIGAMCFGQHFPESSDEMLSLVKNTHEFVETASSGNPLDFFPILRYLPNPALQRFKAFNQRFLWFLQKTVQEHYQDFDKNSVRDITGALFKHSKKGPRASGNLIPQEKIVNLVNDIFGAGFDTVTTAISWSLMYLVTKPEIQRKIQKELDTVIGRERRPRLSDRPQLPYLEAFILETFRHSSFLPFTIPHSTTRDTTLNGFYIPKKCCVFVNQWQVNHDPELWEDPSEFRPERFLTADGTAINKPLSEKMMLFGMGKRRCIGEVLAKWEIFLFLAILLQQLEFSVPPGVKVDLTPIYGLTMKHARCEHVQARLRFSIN
# UniProt P11511: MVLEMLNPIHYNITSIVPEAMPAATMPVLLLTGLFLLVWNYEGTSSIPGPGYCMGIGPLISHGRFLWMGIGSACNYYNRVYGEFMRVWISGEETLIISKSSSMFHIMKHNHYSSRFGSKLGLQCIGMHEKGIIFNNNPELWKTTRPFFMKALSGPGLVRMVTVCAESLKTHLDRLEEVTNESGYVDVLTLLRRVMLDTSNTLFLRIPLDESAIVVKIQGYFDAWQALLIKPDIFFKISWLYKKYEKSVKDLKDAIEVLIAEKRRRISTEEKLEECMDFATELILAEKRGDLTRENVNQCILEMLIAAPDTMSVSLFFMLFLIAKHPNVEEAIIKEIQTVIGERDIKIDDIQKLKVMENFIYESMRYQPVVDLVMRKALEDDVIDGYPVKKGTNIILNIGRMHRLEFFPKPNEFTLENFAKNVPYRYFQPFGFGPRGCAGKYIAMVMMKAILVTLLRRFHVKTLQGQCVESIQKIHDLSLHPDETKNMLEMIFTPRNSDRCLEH
# Tests used:
# Cytochrome P450 1A2 = Cytochrome P450 1A2 (Homo sapiens, UniProt P05177); experiment: Inhibition of human recombinant CYP1A2 assessed as metabolism of 3-cyano-7-ethoxycoumarin after 30 mins by fluorescence assay; format: ADME
# Aromatase = Aromatase (Homo sapiens, UniProt P11511); experiment: Inhibition of human recombinant aromatase using 7-methoxy-trifluoromethylcoumarin as substrate assessed as formation of fluorescent metabolite after 30 mins by fluorescence assay
# How it was run: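 Recombinant human CYP19 with MFC substrate, converted to fluorescent HFC, in 0.1 M potassium phosphate pH 7.4. NADPH-regenerating mix (NADP⁺, MgCl₂, glucose-6-phosphate, G6PDH); compound prewarmed 10 min at 37 °C, then 30 min reaction stopped with Tris base in acetonitrile. Activity as % of vehicle control; IC50 from one-site competition fit; Ki from Lineweaver–Burk data by nonlinear regression.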
structure (smiles),measurement,setting,value
CC/C(=C(/c1ccc(O)cc1)c1ccc(OCCN)cc1)c1ccccc1 (mixture of isomers),Ki,Cytochrome P450 1A2,76 nM
same,IC50,Aromatase,102 nM
